From ChEMBL document CHEMBL2417403, “N-terminal guanidinylation of TIPP (Tyr-Tic-Phe-Phe) peptides results in major changes of the opioid activity profile” (Bioorg Med Chem Lett, 2013) come the findings set out here.

Sequences of proteins named here, by UniProt entry; tags and fusion partners are left off. A change or cut given only in a name is not applied to a line headed by its entry.
UniProt P41144: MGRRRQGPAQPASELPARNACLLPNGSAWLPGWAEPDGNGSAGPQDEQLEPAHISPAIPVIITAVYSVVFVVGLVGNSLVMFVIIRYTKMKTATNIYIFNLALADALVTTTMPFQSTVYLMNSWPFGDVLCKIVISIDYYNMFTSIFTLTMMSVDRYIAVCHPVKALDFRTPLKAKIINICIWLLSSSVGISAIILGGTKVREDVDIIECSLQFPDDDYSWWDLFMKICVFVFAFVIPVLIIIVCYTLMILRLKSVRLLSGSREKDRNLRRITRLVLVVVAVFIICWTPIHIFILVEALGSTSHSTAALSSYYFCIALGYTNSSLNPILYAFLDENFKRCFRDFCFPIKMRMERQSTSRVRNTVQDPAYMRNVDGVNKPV

A word on the Ki: it is the dissociation constant of the complex between target and ligand, obtained from inhibition or displacement.

The target of this experiment is Kappa-type opioid receptor (Cavia porcellus, UniProt P41144). Nature of the experiment: Displacement of [3H]U69,593 from kappa opioid receptor in guinea pig brain membranes. The experiment is classed as cell membranes, Membrane. Put shortly: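 Competitive displacement of tritiated radioligands, with affinities reported as Ki. Mu sites were labelled with [³H]DAMGO and delta sites with [³H]DSLET, both on rat brain membranes. Kappa sites were labelled with [³H]U69,593 on guinea pig brain membranes.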

Take `N[C@@H](Cc1ccc(O)cc1)C(=O)N1Cc2ccccc2C[C@H]1CN[C@@H](Cc1ccccc1)C(=O)N[C@@H](Cc1ccccc1)C(=O)O`: the Ki was above 1000 nM.
